The values below come from patent US20110245288A1 (priority 2010, published 2011).

The nature of data set [1]: Plasma stability studies (bioconversion to parent drug). The settings on record: 37° C., conversion of prodrug to buprenorphine.
Data set [2] in a line: In vitro skin permeation studies of buprenorphine prodrugs (Example 1). Particulars: human skin in vitro, FIG. 1.

Molecules are shown by their SMILES.

In the case of `CO[C@]12CC[C@@]3(C[C@@H]1[C@](C)(O)C(C)(C)C)[C@H]1Cc4ccc(OC(=O)OCC[C@H](O)CO)c5c4[C@@]3(CCN1CC1CC1)[C@H]2O5`, the “Plasma hydrolysis (k)” value in data set [1] was -0.79 h⁻¹. In data set [2], the “share of drug observed in the receiver solution after passing through the skin that was Formula IV” value was 5.7%.
